Assays:
canine CRF-R2 beta = canine CRF-R2 beta (Canis lupus familiaris, UniProt A0A8I3PB95); experiment: cAMP assay in transfected CHO-K1 cells; conditions: read-out: CRFR2β (IC50 nM); Dog; mean of 3 data points (n=3)
Method: (§1) cAMP was determined utilizing a DiscoverX HitHunter assay Enzyme Fragment Complementation (EF) technology purchased from Eurofins as described in the manufacturing instructions with some adjustments. IC50's were calculated from antagonist dose response curves utilizing interpolated cAMP levels and/or relative light unit (RLU) data. In addition, eXpress assay ready cAMP kits were also utilized with hCRF-R1 and hCRF-R2 division arrested cells according to the manufacturing instructions. Briefly, antagonist dilutions were prepared in assay buffer: Gibco Hank's Buffered Salt Solution (Gibco 30-410, HBSS) supplemented with + 10 mM HEPES Buffer (Gibco 15630-080), containing 6X Tween-20 (Gibco BP337-100; final concentration in wells 0.01%). After removal of the culture media in cells, assay buffer (30 µl) was added to each of the wells on the plate utilizing a multichannel pipettor (INTEGRA VIAFLO 300 µl). The various antagonist dilutions (7.5 µl) at 6X concentration were added to the wells according to the assay protocol plate map and the plate was incubated for 30 min at 37°C. To compare the effects of albumin on the antagonist IC50, assays were also performed by diluting the compounds as described above in assay buffer containing 0.1% [w:v] bovine serum albumin (BSA) or no BSA (Bovine Albumin Fraction V, Fatty Acid Free: MP Biomedicals, Cat. 152401, Lot. S8210). Immediately thereafter, 7.5 µl (6X) of agonist (hCRF for hCRF-R1, hUCN1 for hCRF-R2) was added at a final concentration of 1 nM/well; approximately EC80) followed by a further incubation for 30 min at 37°C. Following the incubation of the antagonists and agonists, 15 µl of Eurofins HitHunter cAMP antibody solution and 60 µl of the Working Detection Solution were added followed by a 1 h incubation at room temperature in the dark. Finally, 60 µl of cAMP Solution A was added followed by a further incubation overnight (approx. 18 h). The total final reaction volume was 180 µl/well. The resulting chemiluminescent signal was measured in a Tecan Spark luminometer.
(§2) For transient transfections, plasmid constructs were supplied by GenScript for rat, cynomolgus monkey, and canine CRF-R1 alpha, and CRF-R2 beta subtypes, as well as human CRF-R1 alpha and CRF-R2 alpha, beta and gamma subtypes all cloned into a pCDNA3.1 (Neo^R) vector. Briefly, Chinese hamster ovary strain K1 (CHO-K1) parental cells were expanded from a liquid nitrogen-stored working bank vial (1.0E+6 cells) by thawing at 37°C for 60 seconds, followed by expansion in 30 ml CHO-K1 Complete Media in a T-225 flask. Cells were passaged at least once by aspirating-out used culture media and washing adherent cells once in phosphate buffered saline without divalent cations (Intermountain BSS-PBS-1X6), followed by dislodging the adherent cells using Enzyme-free cell dissociation buffer (EFDB, Millipore Sigma C5789) and subsequent continued culture in complete media.
(§3) On Day 0, CHO-K1 parental cells were harvested when ~ 90% confluent, seeded into 6-well plates (Costar 3516) at approximately 400,000 cells/well, and cultured overnight in complete media. On Day +1 the cells were monitored for optimal confluence (60-75%), health, cell distribution and morphology, and the media was changed by aspiration with the addition of 2mL fresh complete media. Lipid:DNA complexes were prepared by either: (i) mixing 2.5 µg of plasmid DNA into 500 µl OptiMEM reduced serum media (Gibco Cat# 31985062) together with 9 µl of Lipofecamine LTX (Invitrogen™ Cat# 15338100) followed by incubation for 25 minutes at room temperature; or (ii) mixing 2.0 µg of plasmid DNA into 82 µl OptiMEM with 16 µl of FuGENE 6 (Promega Cat# E2691), at a 4:1 lipid:pDNA volume ratio, followed by incubation for 45 minutes at room temperature. Lipid:DNA complexes were subsequently added dropwise directly onto cells on the 6-well plate. […]

The chains behind the UniProt entries cited, without tags or fusion partners. A line that says so, or that is headed by a name, gives the form on record, which may keep a tag or linker. Residues count along the entry.
UniProt A0A8I3PB95, 31-437 limits assumed: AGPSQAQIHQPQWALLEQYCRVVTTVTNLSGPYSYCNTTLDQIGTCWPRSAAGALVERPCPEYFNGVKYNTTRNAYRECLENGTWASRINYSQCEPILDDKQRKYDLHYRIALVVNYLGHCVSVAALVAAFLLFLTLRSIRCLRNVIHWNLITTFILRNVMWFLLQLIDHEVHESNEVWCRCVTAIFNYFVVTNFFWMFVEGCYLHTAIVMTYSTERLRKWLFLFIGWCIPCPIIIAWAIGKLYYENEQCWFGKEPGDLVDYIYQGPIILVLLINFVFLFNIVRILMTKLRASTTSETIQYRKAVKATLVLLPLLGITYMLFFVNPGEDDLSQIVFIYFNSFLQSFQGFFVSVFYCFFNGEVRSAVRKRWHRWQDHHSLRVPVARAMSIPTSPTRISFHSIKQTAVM
UniProt Q13324, whole entry: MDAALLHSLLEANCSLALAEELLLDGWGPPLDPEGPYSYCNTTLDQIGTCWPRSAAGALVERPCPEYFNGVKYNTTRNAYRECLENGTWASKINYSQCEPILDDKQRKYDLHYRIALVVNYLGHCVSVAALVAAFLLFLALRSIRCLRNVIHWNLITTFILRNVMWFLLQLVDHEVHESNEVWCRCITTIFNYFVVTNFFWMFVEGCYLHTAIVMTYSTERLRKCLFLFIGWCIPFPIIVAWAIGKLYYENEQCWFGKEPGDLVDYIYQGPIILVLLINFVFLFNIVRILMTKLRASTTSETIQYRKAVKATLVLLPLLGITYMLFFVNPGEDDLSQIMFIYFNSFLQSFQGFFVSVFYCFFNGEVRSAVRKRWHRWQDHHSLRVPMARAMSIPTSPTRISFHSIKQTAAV
UniProt Q13324, 1-397 with tags or gaps: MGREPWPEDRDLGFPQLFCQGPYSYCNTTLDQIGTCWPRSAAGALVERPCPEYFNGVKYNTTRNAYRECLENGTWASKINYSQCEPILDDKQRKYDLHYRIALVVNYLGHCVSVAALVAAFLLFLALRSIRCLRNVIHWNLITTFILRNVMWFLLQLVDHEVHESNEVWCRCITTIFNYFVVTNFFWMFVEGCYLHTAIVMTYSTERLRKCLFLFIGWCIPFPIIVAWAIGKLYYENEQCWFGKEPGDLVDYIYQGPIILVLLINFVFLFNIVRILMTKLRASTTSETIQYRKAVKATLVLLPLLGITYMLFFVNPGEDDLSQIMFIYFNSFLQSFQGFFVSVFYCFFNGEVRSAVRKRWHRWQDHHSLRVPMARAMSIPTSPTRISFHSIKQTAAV
UniProt Q13324, 1-438 with tags or gaps: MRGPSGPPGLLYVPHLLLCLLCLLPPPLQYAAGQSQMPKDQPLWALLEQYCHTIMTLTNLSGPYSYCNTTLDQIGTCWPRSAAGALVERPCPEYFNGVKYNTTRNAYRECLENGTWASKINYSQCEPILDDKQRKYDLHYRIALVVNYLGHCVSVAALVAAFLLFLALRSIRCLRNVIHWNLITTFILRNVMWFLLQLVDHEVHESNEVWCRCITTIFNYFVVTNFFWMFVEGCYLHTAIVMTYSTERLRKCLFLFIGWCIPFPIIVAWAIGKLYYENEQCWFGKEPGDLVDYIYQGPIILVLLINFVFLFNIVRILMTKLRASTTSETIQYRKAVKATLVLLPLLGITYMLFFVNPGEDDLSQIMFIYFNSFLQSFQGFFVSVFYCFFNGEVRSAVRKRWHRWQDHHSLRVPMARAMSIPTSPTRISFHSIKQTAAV
UniProt A0A8I3PHA9, 24-415 limits assumed: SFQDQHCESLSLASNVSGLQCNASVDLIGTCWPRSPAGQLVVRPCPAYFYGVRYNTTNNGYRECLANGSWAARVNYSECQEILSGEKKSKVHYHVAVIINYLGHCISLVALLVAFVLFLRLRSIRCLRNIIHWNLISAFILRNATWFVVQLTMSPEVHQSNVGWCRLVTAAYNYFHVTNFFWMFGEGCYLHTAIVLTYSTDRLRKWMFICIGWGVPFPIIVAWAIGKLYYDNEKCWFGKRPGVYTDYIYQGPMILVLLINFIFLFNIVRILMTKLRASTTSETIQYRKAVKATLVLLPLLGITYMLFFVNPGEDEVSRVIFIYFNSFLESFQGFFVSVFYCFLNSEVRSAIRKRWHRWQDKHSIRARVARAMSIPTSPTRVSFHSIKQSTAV
UniProt P35353, 24-415 limits assumed: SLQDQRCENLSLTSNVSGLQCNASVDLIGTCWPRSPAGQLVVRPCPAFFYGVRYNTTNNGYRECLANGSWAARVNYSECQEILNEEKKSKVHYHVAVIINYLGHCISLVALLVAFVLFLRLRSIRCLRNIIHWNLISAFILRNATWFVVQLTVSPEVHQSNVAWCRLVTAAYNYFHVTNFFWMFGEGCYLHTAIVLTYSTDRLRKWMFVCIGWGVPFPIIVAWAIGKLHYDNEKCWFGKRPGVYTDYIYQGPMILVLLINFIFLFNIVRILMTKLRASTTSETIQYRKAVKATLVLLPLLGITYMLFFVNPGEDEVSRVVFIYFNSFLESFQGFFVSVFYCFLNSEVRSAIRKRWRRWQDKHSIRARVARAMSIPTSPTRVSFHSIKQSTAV
UniProt P47866, 1-431 with tags or gaps: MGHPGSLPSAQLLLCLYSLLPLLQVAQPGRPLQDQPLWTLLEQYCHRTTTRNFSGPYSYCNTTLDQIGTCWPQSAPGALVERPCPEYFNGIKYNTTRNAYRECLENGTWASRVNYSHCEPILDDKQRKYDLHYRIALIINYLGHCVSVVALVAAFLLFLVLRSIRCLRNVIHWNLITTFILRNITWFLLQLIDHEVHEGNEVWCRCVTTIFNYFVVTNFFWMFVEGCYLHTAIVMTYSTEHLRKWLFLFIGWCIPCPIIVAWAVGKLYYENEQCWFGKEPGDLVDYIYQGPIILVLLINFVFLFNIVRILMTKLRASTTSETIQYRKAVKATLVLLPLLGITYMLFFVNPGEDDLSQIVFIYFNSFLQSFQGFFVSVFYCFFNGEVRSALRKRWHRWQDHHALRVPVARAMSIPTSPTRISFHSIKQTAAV
UniProt P34998, 24-415 limits assumed: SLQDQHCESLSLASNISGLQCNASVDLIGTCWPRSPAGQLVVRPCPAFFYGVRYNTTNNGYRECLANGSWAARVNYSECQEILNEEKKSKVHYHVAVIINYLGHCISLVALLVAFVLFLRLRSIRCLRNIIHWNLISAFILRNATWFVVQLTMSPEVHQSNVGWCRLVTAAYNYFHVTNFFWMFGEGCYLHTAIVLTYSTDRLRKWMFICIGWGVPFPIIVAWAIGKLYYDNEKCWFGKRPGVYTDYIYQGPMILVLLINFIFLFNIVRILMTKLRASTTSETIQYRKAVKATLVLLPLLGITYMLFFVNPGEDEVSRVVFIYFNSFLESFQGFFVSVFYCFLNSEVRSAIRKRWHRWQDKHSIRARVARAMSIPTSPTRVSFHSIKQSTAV
UniProt A0A2K5WS31, 30-431 limits assumed: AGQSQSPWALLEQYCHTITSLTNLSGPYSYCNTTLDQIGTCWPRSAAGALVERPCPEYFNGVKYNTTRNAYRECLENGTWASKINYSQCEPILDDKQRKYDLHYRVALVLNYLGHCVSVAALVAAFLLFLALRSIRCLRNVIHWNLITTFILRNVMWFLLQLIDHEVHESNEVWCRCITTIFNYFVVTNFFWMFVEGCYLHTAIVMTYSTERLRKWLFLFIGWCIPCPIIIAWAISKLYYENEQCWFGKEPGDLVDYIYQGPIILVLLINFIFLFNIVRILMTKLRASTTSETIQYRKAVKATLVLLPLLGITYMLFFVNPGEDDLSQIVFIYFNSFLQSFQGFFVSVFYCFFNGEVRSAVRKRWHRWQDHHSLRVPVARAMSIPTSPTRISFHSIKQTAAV
UniProt A0A2K5WPT1, 24-415 limits assumed: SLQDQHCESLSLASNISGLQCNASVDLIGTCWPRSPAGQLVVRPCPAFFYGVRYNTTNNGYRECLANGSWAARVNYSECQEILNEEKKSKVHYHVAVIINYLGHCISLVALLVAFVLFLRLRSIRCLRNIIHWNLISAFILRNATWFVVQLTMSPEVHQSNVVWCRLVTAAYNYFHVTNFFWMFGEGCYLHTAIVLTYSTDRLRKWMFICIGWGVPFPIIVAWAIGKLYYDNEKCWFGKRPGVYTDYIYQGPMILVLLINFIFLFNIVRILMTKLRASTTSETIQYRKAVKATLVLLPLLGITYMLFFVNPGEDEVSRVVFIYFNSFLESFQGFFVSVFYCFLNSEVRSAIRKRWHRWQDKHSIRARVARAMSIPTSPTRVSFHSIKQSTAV

human CRF-R2 gamma = human CRF-R2 gamma (Homo sapiens, UniProt Q13324); experiment: cAMP assay in transfected CHO-K1 cells; conditions: read-out: CRFR2γ (IC50 nM), mean of 3 data points (n=3)
Method: as §1, §2, §3

canine CRF-R1 alpha = canine CRF-R1 alpha (Canis lupus familiaris, UniProt A0A8I3PHA9); experiment: cAMP assay in transfected CHO-K1 cells; conditions: read-out: CRFR1 (IC50 nM); Dog; mean of 3 data points (n=3)
Method: as §1, §2, §3

rat CRF-R1 alpha = rat CRF-R1 alpha (Rattus norvegicus, UniProt P35353); experiment: cAMP assay in transfected CHO-K1 cells; conditions: read-out: CRFR1 (IC50 nM), mean of 3 data points (n=3)
Method: as §1, §2, §3

rat CRF-R2 beta = rat CRF-R2 beta (Rattus norvegicus, UniProt P47866); experiment: cAMP assay in transfected CHO-K1 cells; conditions: read-out: CRFR2β (IC50 nM), mean of 3 data points (n=3)
Method: as §1, §2, §3

human CRF-R2 alpha = human CRF-R2 alpha (Homo sapiens, UniProt Q13324); experiment: cAMP assay in transfected CHO-K1 cells; conditions: read-out: CRFR2α (IC50 nM); Human; mean of 3 data points (n=3)
Method: as §1, §2, §3

human CRF-R1 alpha = human CRF-R1 alpha (Homo sapiens, UniProt P34998); experiment: cAMP assay in transfected CHO-K1 cells; conditions: read-out: CRFR1 (IC50 nM); Human; mean of 3 data points (n=3)
Method: as §1, §2, §3

human CRF-R2 beta = human CRF-R2 beta (Homo sapiens, UniProt Q13324); experiment: cAMP assay in transfected CHO-K1 cells; conditions: read-out: CRFR2β (IC50 nM); Human; mean of 3 data points (n=3)
Method: as §1, §2, §3

[1] = target: cynomolgus monkey CRF-R2 beta (Macaca fascicularis, UniProt A0A2K5WS31); experiment: cAMP assay in transfected CHO-K1 cells; conditions: read-out: CRFR2β (IC50 nM); Cyno; mean of 3 data points (n=3)
Method: as §1, §2, §3

[2] = target: cynomolgus monkey CRF-R1 alpha (Macaca fascicularis, UniProt A0A2K5WPT1); experiment: cAMP assay in transfected CHO-K1 cells; conditions: read-out: CRFR1 (IC50 nM); Cyno; mean of 3 data points (n=3)
Method: as §1, §2, §3

[3] = Peptide pharmacokinetics, monkey study (IV and SC); conditions: cynomolgus monkey
Method: Pharmacokinetics of the test peptides were evaluated in vivo as described herein. Male Sprague Dawley rats (300-450 g), male Beagle dogs (5-10 kg) and male cynomolgus monkeys (2-4 kg) were used in the pharmacokinetics (PK) study. All animal procedures were approved by the Institutional Animal Care and Use Committee at the Test Facility.
For IV dosing, compounds were administered by intravenous bolus injection into one of the two peripheral tail veins, at 0.1 mg/kg or 0.3 mg/kg in 0.01M phosphate (pH 7.4, 1 mg/mL). Following dosing, the catheter was flushed with 3 mL of saline prior to removal. For SC dosing, compounds were administered at the intra-scapular skin, at 0.3 mg/kg or 0.9 mg/kg in 0.01M phosphate (pH 7.4, 5 mg/mL). The SC injection site was prepared by clipping away the hair and cleaning with alcohol. After administration, the site was marked with a circle approximately 5cm in diameter.
Blood samples were collected into tubes with K2EDTA. Tubes were stored on wet ice until processed to plasma by centrifugation (2,200 x g at nominal 4°C for 10 minutes) within 60 minutes of collection. Plasma samples were transferred into individual uniquely labeled matrix tubes and stored at nominal -80°C until analysis by liquid chromatography tandem-mass spectrometry (LC-MS/MS).
The plasma samples were prepared by solid phase extraction (SPE) using a Waters PRiME HLB Microelution plate. The SPE plate was conditioned using water:methanol (50:50, v/v) and 0.5% tween 80 in water. After pretreated samples were loaded, wells were washed with 5% methanol in water and 0.1% TFA in water:acetonitrile (80:20, v/v). Wells were eluted with 0.1% formic acid, 0.5% 2,2,2-trifluoroethanol in water:acetonitrile (20:80, v/v) followed by a dilution with 0.1% formic acid, 0.1% tween 80 in water for analysis by LC-MS/MS. The analyte and internal standard (IS) were separated by reversed-phase chromatography using a Shimadzu Nexera X2 UHPLC system and Phenomenex bioZen Peptide PS-C18 50x2.1-mm, 3µm column. The analyte and IS were detected using an Applied Biosystems Sciex API 6500 triple quadrupole mass spectrometer. The mass spectrometer was equipped with an electrospray ionization source operated in the positive-ion mode. The analyte and internal standard were monitored in the multiple-reaction-monitoring scan mode.
Noncompartmental pharmacokinetic parameters were calculated using Phoenix® WinNonlin® software (Version 8.3; Linear Up Log Down Interpolation Calculation Method; Certara L.P.).

IC50 (canine CRF-R2 beta): 32 nM
IC50 (human CRF-R2 gamma): 1.6 nM
IC50 (canine CRF-R1 alpha): 1.3 nM
IC50 (rat CRF-R1 alpha): 0.85 nM
IC50 (rat CRF-R2 beta): 48 nM
IC50 (human CRF-R2 alpha): 406 nM
IC50 (human CRF-R1 alpha): 0.74 nM
IC50 (human CRF-R2 beta): 36 nM
IC50 [1]: 28 nM
IC50 [2]: 1 nM
IV half-life (IV t1/2) ([3]; intravenously 0.3 mg/kg): 34.9 h
clearance (IV CL) ([3]; intravenously 0.3 mg/kg): 1.5 mL/h/kg
volume of distribution (IV Vd) ([3]; intravenously 0.3 mg/kg): 0.066 L/kg
administered SC dose that reaches systemic circulation (F) ([3]; subcutaneously 0.9 mg/kg): 100%
concentration of peptide in blood plasma (AUC) ([3]; subcutaneously 0.9 mg/kg): 626 µg·h/mL
time to reach peak plasma concentration (Tmax) ([3]; subcutaneously 0.9 mg/kg): 5.3 h
time to reduce the concentration to half its initial value (t1/2) ([3]; subcutaneously 0.9 mg/kg): 33.5 h
Substance: Ac-Asp-Leu-Thr-D-Phe-His-Leu-Leu-Arg-Glu-Val-Leu-Glu-Nle-K*-Gln-Glu-Glu-Gln-cVal-Ala-Gln-E#-Ala-Glu-K#-Asn-Arg-Lys-Leu-Nle-Glu-cVal-Ala-CONH2

— patent EP4847524A2, “FATTY ACID CONJUGATED CYCLIC PEPTIDES” (dated 2026)
